The results in this text go back to ChEMBL document CHEMBL1135402, “New serotonin 5-HT(2A), 5-HT(2B), and 5-HT(2C) receptor antagonists: synthesis, pharmacology, 3D-QSAR, and molecular modeling of (aminoalkyl)benzo and heterocycloalkanones” (J Med Chem, 2002).

Sequences of proteins named here, by UniProt entry; tags and fusion partners are left off. A change or cut given only in a name is not applied to a line headed by its entry.
UniProt P08909: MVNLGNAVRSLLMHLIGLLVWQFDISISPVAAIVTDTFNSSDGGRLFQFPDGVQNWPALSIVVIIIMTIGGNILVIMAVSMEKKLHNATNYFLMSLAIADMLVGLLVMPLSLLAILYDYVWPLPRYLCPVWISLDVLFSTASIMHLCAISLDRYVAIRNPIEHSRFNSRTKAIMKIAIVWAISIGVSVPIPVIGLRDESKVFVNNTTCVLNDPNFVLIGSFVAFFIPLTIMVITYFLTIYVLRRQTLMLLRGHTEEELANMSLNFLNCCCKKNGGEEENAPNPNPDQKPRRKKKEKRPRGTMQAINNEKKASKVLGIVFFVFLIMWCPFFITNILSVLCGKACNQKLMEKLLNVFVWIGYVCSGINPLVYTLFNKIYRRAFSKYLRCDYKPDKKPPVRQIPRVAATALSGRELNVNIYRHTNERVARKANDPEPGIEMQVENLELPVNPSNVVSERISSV
UniProt P14842, whole entry, looked up: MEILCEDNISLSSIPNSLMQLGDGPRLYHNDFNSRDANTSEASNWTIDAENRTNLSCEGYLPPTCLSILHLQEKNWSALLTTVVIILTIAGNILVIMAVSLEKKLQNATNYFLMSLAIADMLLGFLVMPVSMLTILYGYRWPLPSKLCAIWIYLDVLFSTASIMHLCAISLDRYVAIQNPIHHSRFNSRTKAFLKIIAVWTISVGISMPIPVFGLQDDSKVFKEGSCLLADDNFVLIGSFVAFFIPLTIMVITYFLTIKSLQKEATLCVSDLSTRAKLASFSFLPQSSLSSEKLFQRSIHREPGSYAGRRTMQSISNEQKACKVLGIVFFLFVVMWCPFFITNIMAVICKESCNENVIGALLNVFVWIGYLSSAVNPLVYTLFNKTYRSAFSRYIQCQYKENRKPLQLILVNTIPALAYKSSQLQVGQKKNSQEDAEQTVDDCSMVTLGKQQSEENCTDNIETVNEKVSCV

The target in the test is Serotonin receptor 2a and 2c (5HT2A and 5HT2C) (Rattus norvegicus) (UniProt P08909+P14842). As to the kind of experiment: Selectivity ratio towards Ki of 5-hydroxytryptamine 2A receptor to 5-hydroxytryptamine 2C receptor. The test is classed as protein assay.
Regarding `O=C(c1ccc(F)cc1)C1CCN(CCC2Cc3ccccc3C2=O)CC1` (stereo not drawn), the Ratio is 66.

`O=C(c1ccc(F)cc1)C1CCN(CCC2CCCc3ccccc3C2=O)CC1` (stereo not drawn): the Ratio stood at 38.

With `O=C1CC(CN2CCC(c3noc4cc(F)ccc34)CC2)Cc2ccccc21` (stereo not drawn), the Ratio is 39.
